Results as given in patent US20240376128A1, “N-CYCLOPROPYLPYRIDO [4, 3-D] PYRIMIDIN-4-AMINE DERIVATIVES AND USES THEREOF” (Jacobio Pharmaceuticals Co., Ltd., priority 2021, published 2024).

Sequences of proteins named here, by UniProt entry; tags and fusion partners are left off. A change or cut given only in a name is not applied to a line headed by its entry.
UniProt P01116: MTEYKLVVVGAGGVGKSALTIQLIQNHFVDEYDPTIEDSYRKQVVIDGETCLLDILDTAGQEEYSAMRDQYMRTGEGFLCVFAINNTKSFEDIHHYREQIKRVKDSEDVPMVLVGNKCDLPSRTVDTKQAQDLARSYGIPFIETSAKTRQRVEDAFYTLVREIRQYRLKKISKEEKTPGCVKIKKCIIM

Biological target: K-Ras G12D (Homo sapiens, UniProt P01116, G12D)
Test: SOS1 catalyzed nucleotide exchange assay (GDP form K-Ras), TR-FRET
Details: read-out: Biochemical assays, IC50, K-Ras G12D GDP

SMILES	IC50 [µM]
C#Cc1c(F)ccc2cc(O)cc(-c3ncc4c(N(C)[C@@H]5C[C@H]5F)nc(OC[C@@]56CCCN5C[C@H](O)C6)nc4c3F)c12 (mixture of isomers) [Compound 9, (2R,7aS)-7a-(((7-(8-ethynyl-7-fluoro-3-hydroxynaphthalen-1-yl)-8-fluoro-4-((trans-2-fluorocyclopropyl)(methyl)amino)pyrido[4,3-d]pyrimidin-2-yl)oxy)methyl)hexahydro-1H-pyrrolizin-2-ol 2,2,2-trifluoroacetic acid]	0.002
CCc1c(F)ccc2cc(O)cc(-c3ncc4c(N(C)[C@@H]5C[C@H]5F)nc(OC[C@@]56CCCN5C[C@H](F)C6)nc4c3F)c12.O=C(O)C(F)(F)F (mixture of isomers) [Compound 15, 5-ethyl-6-fluoro-4-(8-fluoro-4-((trans-2-fluorocyclopropyl)(methyl)amino)-2-(((2R,7aS)-2-fluorotetrahydro-1H-pyrrolizin-7a(5H)-yl)methoxy)pyrido[4,3-d]pyrimidin-7-yl)naphthalen-2-ol 2,2,2-trifluoroacetic acid]	0.00316
C#Cc1c(F)ccc2cc(O)cc(-c3ncc4c(N(C)[C@H]5C[C@@H]5C#N)nc(OC[C@@]56CCCN5C[C@H](F)C6)nc4c3F)c12 (racemic) [Compound 44, trans-2-((7-(8-ethynyl-7-fluoro-3-hydroxynaphthalen-1-yl)-8-fluoro-2-(((2R,7aS)-2-fluorotetrahydro-1H-pyrrolizin-7a(5H)-yl)methoxy)pyrido[4,3-d]pyrimidin-4-yl) (methyl)amino)cyclopropane-1-carbonitrile 2,2,2-trifluoroacetic acid]	0.0163
C#Cc1c(F)ccc2cc(O)cc(-c3nc(OC)c4c(N(C)C5CC5)nc(OC[C@@]56CCCN5C[C@H](F)C6)nc4c3F)c12 [Compound 2, 4-(4-(cyclopropyl(methyl)amino)-8-fluoro-2-(((2R,7aS)-2-fluorotetrahydro-1H-pyrrolizin-7a(5H)-yl)methoxy)-5-methoxypyrido[4,3-d]pyrimidin-7-yl)-5-ethynyl-6-fluoronaphthalen-2-ol]	0.00407
O=C(O)C(F)(F)F.[2H]C([2H])([2H])N(c1nc(OC[C@@]23CCCN2C[C@H](F)C3)nc2c(F)c(-c3cc(O)cc4ccc(F)c(C#C)c34)ncc12)[C@H]1C[C@@H]1F [Compound 7, 5-ethynyl-6-fluoro-4-(8-fluoro-4-(((1S,2S)-2-fluorocyclopropyl)(methyl-d3)amino)-2-(((2R,7aS)-2-fluorotetrahydro-1H-pyrrolizin-7a(5H)-yl)methoxy)pyrido[4,3-d]pyrimidin-7-yl)naphthalen-2-ol 2,2,2-trifluoroacetic acid]	0.000701
[2H]C([2H])([2H])N(c1nc(OC[C@@]23CCCN2C[C@H](F)C3)nc2c(F)c(-c3cc(OC(=O)NC)cc4ccc(F)c(C#C)c34)ncc12)C1CC1 [Compound 8, 4-(4-(cyclopropyl(methyl-d3)amino)-8-fluoro-2-(((2R,7aS)-2-fluorotetrahydro-1H-pyrrolizin-7a(5H)-yl)methoxy)pyrido[4,3-d]pyrimidin-7-yl)-5-ethynyl-6-fluoronaphthalen-2-yl methylcarbamate]	0.0469
C#Cc1c(F)ccc2cc(O)cc(-c3ncc4c(NC5(C)CC5)nc(OC[C@@]56CCCN5C[C@H](F)C6)nc4c3F)c12 [Compound 10, 5-ethynyl-6-fluoro-4-(8-fluoro-2-(((2R,7aS)-2-fluorotetrahydro-1H-pyrrolizin-7a(5H)-yl)methoxy)-4-((1-methylcyclopropyl)amino)pyrido[4,3-d]pyrimidin-7-yl)naphthalen-2-ol]	0.0242
C#Cc1c(F)ccc2cc(O)cc(-c3ncc4c(N(C)C5CC5(F)F)nc(OC[C@@]56CCCN5C[C@H](F)C6)nc4c3F)c12 (stereo partly drawn) [Compound 11, 4-(4-((2,2-difluorocyclopropyl)(methyl)amino)-8-fluoro-2-(((2R,7aS)-2-fluorotetrahydro-1H-pyrrolizin-7a(5H)-yl)methoxy)pyrido[4,3-d]pyrimidin-7-yl)-5-ethynyl-6-fluoronaphthalen-2-ol 2,2,2-trifluoroacetic acid]	0.0125
C#Cc1c(F)ccc2cc(O)cc(-c3ncc4c(N(C)[C@H]5C[C@H]5F)nc(OC[C@@]56CCCN5C[C@H](F)C6)nc4c3F)c12 [Compound 12, 5-ethynyl-6-fluoro-4-(8-fluoro-4-(((1S,2R)-2-fluorocyclopropyl)(methyl)amino)-2-(((2R,7aS)-2-fluorotetrahydro-1H-pyrrolizin-7a(5H)-yl)methoxy)pyrido[4,3-d]pyrimidin-7-yl)naphthalen-2-ol 2,2,2-trifluoroacetic acid]	0.0329
C#Cc1c(F)ccc2cc(O)cc(-c3ncc4c(N(C)[C@@H]5C[C@@H]5F)nc(OC[C@@]56CCCN5C[C@H](F)C6)nc4c3F)c12 [Compound 13, 5-ethynyl-6-fluoro-4-(8-fluoro-4-(((1R,2S)-2-fluorocyclopropyl)(methyl)amino)-2-(((2R,7aS)-2-fluorotetrahydro-1H-pyrrolizin-7a(5H)-yl)methoxy)pyrido[4,3-d]pyrimidin-7-yl)naphthalen-2-ol]	0.0303
C#Cc1c(F)ccc2cc(O)cc(-c3ncc4c(N(CC5CC5)C5CC5)nc(OC[C@@]56CCCN5C[C@H](F)C6)nc4c3F)c12 [Compound 14, 4-(4-(cyclopropyl(cyclopropylmethyl)amino)-8-fluoro-2-(((2R,7aS)-2-fluorotetrahydro-1H-pyrrolizin-7a(5H)-yl)methoxy)pyrido[4,3-d]pyrimidin-7-yl)-5-ethynyl-6-fluoronaphthalen-2-ol]	0.018
C#Cc1c(F)ccc2cc(O)cc(-c3ncc4c(N(CC(F)F)C5CC5)nc(OC[C@@]56CCCN5C[C@H](F)C6)nc4c3F)c12 [Compound 17, 4-(4-(cyclopropyl(2,2-difluoroethyl)amino)-8-fluoro-2-(((2R,7aS)-2-fluorotetrahydro-1H-pyrrolizin-7a(5H)-yl)methoxy)pyrido[4,3-d]pyrimidin-7-yl)-5-ethynyl-6-fluoronaphthalen-2-ol 2,2,2-trifluoroacetic acid]	0.00894
C#Cc1c(F)ccc2cc(O)cc(-c3ncc4c(NC5CC5)nc(OC[C@@]56CCCN5C[C@H](F)C6)nc4c3F)c12 [Compound 18, 4-(4-(cyclopropylamino)-8-fluoro-2-(((2R,7aS)-2-fluorotetrahydro-1H-pyrrolizin-7a(5H)-yl)methoxy)pyrido[4,3-d]pyrimidin-7-yl)-5-ethynyl-6-fluoronaphthalen-2-ol formic acid]	0.0163
C#Cc1c(F)ccc2cc(O)cc(-c3ncc4c(N(C)C5(C)CC5)nc(OC[C@@]56CCCN5C[C@H](F)C6)nc4c3F)c12 [Compound 19]	0.0273
C#Cc1c(F)ccc2cc(O)cc(-c3ncc4c(NC5CC5C)nc(OC[C@@]56CCCN5C[C@H](F)C6)nc4c3F)c12 (stereo partly drawn) [Compound 22, 5-ethynyl-6-fluoro-4-(8-fluoro-2-(((2R,7aS)-2-fluorotetrahydro-1H-pyrrolizin-7a(5H)-yl)methoxy)-4-((2-methylcyclopropyl)amino)pyrido[4,3-d]pyrimidin-7-yl)naphthalen-2-ol]	0.0128
C#Cc1c(F)ccc2cc(O)cc(-c3ncc4c(NC5(CF)CC5)nc(OC[C@@]56CCCN5C[C@H](F)C6)nc4c3F)c12 [Compound 25, 5-ethynyl-6-fluoro-4-(8-fluoro-4-((1-(fluoromethyl)cyclopropyl)amino)-2-(((2R,7aS)-2-fluorotetrahydro-1H-pyrrolizin-7a(5H)-yl)methoxy)pyrido[4,3-d]pyrimidin-7-yl)naphthalen-2-ol]	0.00859
C#Cc1c(F)ccc2cc(O)cc(-c3nc(Cl)c4c(N(C)C5CC5)nc(OC[C@@]56CCCN5C[C@H](F)C6)nc4c3F)c12 [Compound 33, 4-(5-chloro-4-(cyclopropyl(methyl)amino)-8-fluoro-2-(((2R,7aS)-2-fluorotetrahydro-1H-pyrrolizin-7a(5H)-yl)methoxy)pyridin [4,3-d]pyrimidin-7-yl)-5-ethynyl-6-fluoro-naphthalen-2-ol 2,2,2-trifluoroacetic acid]	0.00607
C#Cc1c(F)ccc2cc(O)cc(-c3nc(OC)c4c(NC5CC5)nc(OC[C@@]56CCCN5C[C@H](F)C6)nc4c3F)c12 [Compound 34, 4-(4-(cyclopropylamino)-8-fluoro-2-(((2R, 7aS)-2-fluorotetrahydro-1H-pyrrolizin-7a(5H)-yl)methoxy)-5-methoxypyrido[4,3-d]pyrimidin-7-yl)-5-ethynyl-6-fluoronaphthalen-2-ol]	0.0762
C#Cc1c(F)ccc2cc(O)cc(-c3nc(C#N)c4c(N(C)C5CC5)nc(OC[C@@]56CCCN5C[C@H](F)C6)nc4c3F)c12 [Compound 35, 4-(cyclopropyl(methyl)amino)-7-(8-ethynyl-7-fluoro-3-hydroxynaphthalen-1-yl)-8-fluoro-2-(((2R,7aS)-2-fluorotetrahydro-1H-pyrrolizin-7a(5H)-yl)methoxy)pyrido[4,3-d] pyrimidine-5-carbonitrile]	0.38
C#Cc1c(F)ccc2cc(O)cc(-c3ncc4c(N(CCOC)C5CC5)nc(OC[C@@]56CCCN5C[C@H](F)C6)nc4c3F)c12 [Compound 36, 4-(4-(cyclopropyl(2-methoxyethyl)amino)-8-fluoro-2-(((2R,7aS)-2-fluorotetrahydro-1H-pyrrolizin-7a(5H)-yl)methoxy)pyrido [4,3-d]pyrimidin-7-yl)-5-ethynyl-6-fluoro naphthalen-2-ol 2,2,2-trifluoroacetic acid]	0.0617
C#Cc1c(F)ccc2cc(O)cc(-c3ncc4c(N(CCF)C5CC5)nc(OC[C@@]56CCCN5C[C@H](F)C6)nc4c3F)c12 [Compound 37, 4-(4-(cyclopropyl(2-fluoroethyl)amino)-8-fluoro-2-(((2R,7aS)-2-fluorotetrahydro-1H-pyrrolizin-7a(5H)-yl)methoxy)pyrido [4,3-d]pyrimidin-7-yl)-5-ethynyl-6-fluoro-naphthalen-2-ol 2,2,2-trifluoroacetic acid]	0.0777
C#Cc1c(F)ccc2cc(O)cc(-c3ncc4c(N(CC(=O)OCC)C5CC5)nc(OC[C@@]56CCCN5C[C@H](F)C6)nc4c3F)c12 [Compound 38, Ethyl N-cyclopropyl-N-(7-(8-ethynyl-7-fluoro-3-hydroxynaphthalen-1-yl)-8-fluoro-2-(((2R, 7aS)-2-fluorotetrahydro-1H-pyrrolizin-7a(5H)-yl)methoxy)pyrido[4,3-d]pyrimidin-4-yl)glycinate 2,2,2-trifluoroacetic acid]	0.222
